We go through two substances from paper PMC11377155.

The target of assay [1] is RhoA (human (endogenous in iPSC-derived cortical neurons)) (UniProt P61586). As to the kind of experiment: proximity ligation; Duolink PLA with anti-pS129 and anti-Rab8 or anti-RhoA antibodies in fixed, saponin-permeabilised pi-N neurons without PFF seeding (Type I lipid-rich inclusions); percent of pS129(+) soma-type inclusions with PLA signal.
Assay [2] has the same target. In words: proximity ligation; Duolink PLA with anti-pS129 and anti-Rab8 or anti-RhoA antibodies in fixed pi-N A53T neurons seeded with A53T αS PFFs (presumed Type II fibrillar inclusions); percent of pS129(+) soma-type inclusions with PLA signal.

Turning to “αS-A53T-sfGFP, phosphorylated at serine 129 (from UniProt P37840 1-140) (natural protein; other documents disagree on this pair)”, the percent of inclusions with PLA signal is 99.7% in assay [1] and 42.8% in assay [2].

Turning to “αS-3K-sfGFP, phosphorylated at serine 129 (from UniProt P37840 1-140) (natural protein; other documents disagree on this pair)”, the percent of inclusions with PLA signal in assay [1] stood at 100%.
